Reference: US10730889B2, “Amido spirocyclic amide and sulfonamide derivatives” (Forma TM, LLC, priority 2012, dated 2020)

By UniProt entry, the sequences of proteins in these tests, tags left out. Where a name states a change or a piece, a line headed by the entry shows the natural chain unless it says otherwise.
UniProt P43490: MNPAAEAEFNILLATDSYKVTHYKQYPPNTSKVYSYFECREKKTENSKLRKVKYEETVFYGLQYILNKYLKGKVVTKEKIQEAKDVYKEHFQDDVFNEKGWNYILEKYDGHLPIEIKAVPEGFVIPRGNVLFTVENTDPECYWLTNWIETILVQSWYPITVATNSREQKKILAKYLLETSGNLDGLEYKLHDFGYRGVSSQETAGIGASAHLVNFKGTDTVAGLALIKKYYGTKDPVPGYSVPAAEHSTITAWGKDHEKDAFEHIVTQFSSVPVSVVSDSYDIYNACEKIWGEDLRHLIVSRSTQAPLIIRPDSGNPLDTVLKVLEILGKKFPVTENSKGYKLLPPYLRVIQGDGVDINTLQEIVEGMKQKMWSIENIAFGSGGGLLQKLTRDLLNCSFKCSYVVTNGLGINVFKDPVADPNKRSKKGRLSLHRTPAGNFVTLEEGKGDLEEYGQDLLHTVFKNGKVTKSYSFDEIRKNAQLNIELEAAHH

biological target: NAMPT (Homo sapiens (Human), UniProt P43490); test: Biochemical inhibition assay (NAMPT enzymatic reaction, NMN quantified by mass spectrometry)

Structure (SMILES)	IC50 [µM]
CS(=O)(=O)c1ccc(C(=O)N2CCC3(CC2)CC3CNC(=O)c2cc3ccncc3o2)cc1 (stereo not shown) [Example 93, N-[[6-(4-methylsulfonylbenzoyl)-6-azaspiro[2.5]octan-2-yl]methyl]furo[2,3-c]pyridine-2-carboxamide]	0.475
NC(=O)Nc1ccc(C(=O)N2CCC3(CC2)CC3CNC(=O)c2cc3ccncc3o2)cc1 (stereo not shown) [Example 94, N-[[6-(4-ureidobenzoyl)-6-azaspiro[2.5]octan-2-yl]methyl]furo[2,3-c]pyridine-2-carboxamide]	0.0706
CC(=O)N1CCN(CC(=O)N2CCC3(CC2)CC3CNC(=O)c2cc3ccncc3o2)CC1 (stereo not shown) [Example 95, N-[[6-[2-(4-acetylpiperazin-1-yl)acetyl]-6-azaspiro[2.5]octan-2-yl]methyl]furo[2,3-c]pyridine-2-carboxamide]	0.426
O=C(NCC1CC12CCN(C(=O)c1ccncc1)CC2)c1cc2ccncc2o1 (stereo not shown) [Example 97, N-[[6-(pyridine-4-carbonyl)-6-azaspiro[2.5]octan-2-yl]methyl]furo[2,3-c]pyridine-2-carboxamide]	0.421
O=C(NCC1CC12CCN(C(=O)c1ccccn1)CC2)c1cc2ccncc2o1 (stereo not shown) [Example 98, N-[[6-(pyridine-2-carbonyl)-6-azaspiro[2.5]octan-2-yl]methyl]furo[2,3-c]pyridine-2-carboxamide]	0.504
O=C(NCC1CC12CCN(C(=O)c1cocn1)CC2)c1cc2ccncc2o1 (stereo not shown) [Example 99, N-[[6-(oxazole-4-carbonyl)-6-azaspiro[2.5]octan-2-yl]methyl]furo[2,3-c]pyridine-2-carboxamide]	0.826
O=C(NCC1CC12CCN(C(=O)c1nc[nH]n1)CC2)c1cc2ccncc2o1 (stereo not shown) [Example 100, N-[[6-(1H-1,2,4-triazole-3-carbonyl)-6-azaspiro[2.5]octan-2-yl]methyl]furo[2,3-c]pyridine-2-carboxamide]	0.462
O=C(NCC1CC12CCN(C(=O)c1c[nH]cn1)CC2)c1cc2ccncc2o1 (stereo not shown) [Example 101, N-[[6-(1H-imidazole-4-carbonyl)-6-azaspiro[2.5]octan-2-yl]methyl]furo[2,3-c]pyridine-2-carboxamide]	0.625
O=C(NCC1CC12CCN(C(=O)c1ccncn1)CC2)c1cc2ccncc2o1 (stereo not shown) [Example 102, N-[[6-(pyrimidine-4-carbonyl)-6-azaspiro[2.5]octan-2-yl]methyl]furo[2,3-c]pyridine-2-carboxamide]	1.21
O=C(NCC1CC12CCN(C(=O)c1cccnc1)CC2)c1cc2ccncc2o1 (stereo not shown) [Example 103, N-[[6-(pyridine-3-carbonyl)-6-azaspiro[2.5]octan-2-yl]methyl]furo[2,3-c]pyridine-2-carboxamide]	0.44
O=C(NCC1CC12CCN(C(=O)c1cc[nH]n1)CC2)c1cc2ccncc2o1 (stereo not shown) [Example 104, N-[[6-(1H-pyrazole-3-carbonyl)-6-azaspiro[2.5]octan-2-yl]methyl]furo[2,3-c]pyridine-2-carboxamide]	2.92
Cn1cnc(C(=O)N2CCC3(CC2)CC3CNC(=O)c2cc3ccncc3o2)c1 (stereo not shown) [Example 105, N-[[6-(1-methylimidazole-4-carbonyl)-6-azaspiro[2.5]octan-2-yl]methyl]furo[2,3-c]pyridine-2-carboxamide]	0.246
Cc1n[nH]cc1C(=O)N1CCC2(CC1)CC2CNC(=O)c1cc2ccncc2o1 (stereo not shown) [Example 106, N-[[6-(3-methyl-1H-pyrazole-4-carbonyl)-6-azaspiro[2.5]octan-2-yl]methyl]furo[2,3-c]pyridine-2-carboxamide]	0.396
Cn1nccc1C(=O)N1CCC2(CC1)CC2CNC(=O)c1cc2ccncc2o1 (stereo not shown) [Example 107, N-[[6-(2-methylpyrazole-3-carbonyl)-6-azaspiro[2.5]octan-2-yl]methyl]furo[2,3-c]pyridine-2-carboxamide]	0.372
Cc1cc(C(=O)N2CCC3(CC2)CC3CNC(=O)c2cc3ccncc3o2)n[nH]1 (stereo not shown) [Example 108, N-[[6-(5-methyl-1H-pyrazole-3-carbonyl)-6-azaspiro[2.5]octan-2-yl]methyl]furo[2,3-c]pyridine-2-carboxamide]	0.216
Cn1ccc(C(=O)N2CCC3(CC2)CC3CNC(=O)c2cc3ccncc3o2)n1 (stereo not shown) [Example 109, N-[[6-(1-methylpyrazole-3-carbonyl)-6-azaspiro[2.5]octan-2-yl]methyl]furo[2,3-c]pyridine-2-carboxamide]	0.0993
O=C(NCC1CC12CCN(C(=O)c1cccnn1)CC2)c1cc2ccncc2o1 (stereo not shown) [Example 110, N-[[6-(pyridazine-3-carbonyl)-6-azaspiro[2.5]octan-2-yl]methyl]furo[2,3-c]pyridine-2-carboxamide]	0.861
O=C(NCC1CC12CCN(C(=O)c1cnccn1)CC2)c1cc2ccncc2o1 (stereo not shown) [Example 112, N-[[6-(pyrazine-2-carbonyl)-6-azaspiro[2.5]octan-2-yl]methyl]furo[2,3-c]pyridine-2-carboxamide]	0.417
O=C(NCC1CC12CCN(C(=O)c1ccnnc1)CC2)c1cc2ccncc2o1 (stereo not shown) [Example 113, N-[[6-(pyridazine-4-carbonyl)-6-azaspiro[2.5]octan-2-yl]methyl]furo[2,3-c]pyridine-2-carboxamide]	0.877

Structure (SMILES)	IC50 [µM]
Cn1cc(C(=O)N2CCC3(CC2)CC3CNC(=O)c2cc3ccncc3o2)cn1 (stereo not shown) [Example 114, N-[[6-(1-methylpyrazole-4-carbonyl)-6-azaspiro[2.5]octan-2-yl]methyl]furo[2,3-c]pyridine-2-carboxamide]	0.325
Cc1cc(C(=O)N2CCC3(CC2)CC3CNC(=O)c2cc3ccncc3o2)nn1C (stereo not shown) [Example 115, N-[[6-(1,5-dimethylpyrazole-3-carbonyl)-6-azaspiro[2.5]octan-2-yl]methyl]furo[2,3-c]pyridine-2-carboxamide]	0.0499
Cc1cc(C(=O)N2CCC3(CC2)CC3CNC(=O)c2cc3ccncc3o2)no1 (stereo not shown) [Example 117, N-[[6-(5-methylisoxazole-3-carbonyl)-6-azaspiro[2.5]octan-2-yl]methyl]furo[2,3-c]pyridine-2-carboxamide]	0.422
Cc1nonc1C(=O)N1CCC2(CC1)CC2CNC(=O)c1cc2ccncc2o1 (stereo not shown) [Example 118, N-[[6-(4-methyl-1,2,5-oxadiazole-3-carbonyl)-6-azaspiro[2.5]octan-2-yl]methyl]furo[2,3-c]pyridine-2-carboxamide]	0.449
Cc1ncccc1C(=O)N1CCC2(CC1)CC2CNC(=O)c1cc2ccncc2o1 (stereo not shown) [Example 119, N-[[6-(2-methylpyridine-3-carbonyl)-6-azaspiro[2.5]octan-2-yl]methyl]furo[2,3-c]pyridine-2-carboxamide]	0.188
Cc1ccncc1C(=O)N1CCC2(CC1)CC2CNC(=O)c1cc2ccncc2o1 (stereo not shown) [Example 120, N-[[6-(4-methylpyridine-3-carbonyl)-6-azaspiro[2.5]octan-2-yl]methyl]furo[2,3-c]pyridine-2-carboxamide]	0.207
Cc1cc(C(=O)N2CCC3(CC2)CC3CNC(=O)c2cc3ccncc3o2)ccn1 (stereo not shown) [Example 121, N-[[6-(2-methylpyridine-4-carbonyl)-6-azaspiro[2.5]octan-2-yl]methyl]furo[2,3-c]pyridine-2-carboxamide]	0.308
Cc1cnc(C(=O)N2CCC3(CC2)CC3CNC(=O)c2cc3ccncc3o2)cn1 (stereo not shown) [Example 122, N-[[6-(5-methylpyrazine-2-carbonyl)-6-azaspiro[2.5]octan-2-yl]methyl]furo[2,3-c]pyridine-2-carboxamide]	0.0974
O=C(NCC1CC12CCN(C(=O)c1cc(C3CC3)n[nH]1)CC2)c1cc2ccncc2o1 (stereo not shown) [Example 123, N-[[6-(3-cyclopropyl-1H-pyrazole-5-carbonyl)-6-azaspiro[2.5]octan-2-yl]methyl]furo[2,3-c]pyridine-2-carboxamide]	0.0661
CCn1ncc(C(=O)N2CCC3(CC2)CC3CNC(=O)c2cc3ccncc3o2)c1C (stereo not shown) [Example 124, N-[[6-(1-ethyl-5-methyl-pyrazole-4-carbonyl)-6-azaspiro[2.5]octan-2-yl]methyl]furo[2,3-c]pyridine-2-carboxamide]	0.151
Cc1noc(C)c1C(=O)N1CCC2(CC1)CC2CNC(=O)c1cc2ccncc2o1 (stereo not shown) [Example 125, N-[[6-(3,5-dimethylisoxazole-4-carbonyl)-6-azaspiro[2.5]octan-2-yl]methyl]furo[2,3-c]pyridine-2-carboxamide]	0.0955
CCn1cc(C(=O)N2CCC3(CC2)CC3CNC(=O)c2cc3ccncc3o2)cn1 (stereo not shown) [Example 126, N-[[6-(1-ethylpyrazole-4-carbonyl)-6-azaspiro[2.5]octan-2-yl]methyl]furo[2,3-c]pyridine-2-carboxamide]	0.273
N#Cc1ccc(C(=O)N2CCC3(CC2)CC3CNC(=O)c2cc3ccncc3o2)cn1 (stereo not shown) [Example 127, N-[[6-(6-cyanopyridine-3-carbonyl)-6-azaspiro[2.5]octan-2-yl]methyl]furo[2,3-c]pyridine-2-carboxamide]	0.269
Cc1nc(C)c(C(=O)N2CCC3(CC2)CC3CNC(=O)c2cc3ccncc3o2)o1 (stereo not shown) [Example 128, N-[[6-(2,4-dimethyloxazole-5-carbonyl)-6-azaspiro[2.5]octan-2-yl]methyl]furo[2,3-c]pyridine-2-carboxamide]	0.0914
O=C(NCC1CC12CCN(C(=O)c1ccnc(N3CCOCC3)c1)CC2)c1cc2ccncc2o1 (stereo not shown) [Example 129, N-[[6-(2-morpholinopyridine-4-carbonyl)-6-azaspiro[2.5]octan-2-yl]methyl]furo[2,3-c]pyridine-2-carboxamide]	0.1
Cn1cc(-c2ccno2)c(C(=O)N2CCC3(CC2)CC3CNC(=O)c2cc3ccncc3o2)n1 (stereo not shown) [Example 132, N-[[6-(4-isoxazol-5-yl-1-methyl-pyrazole-3-carbonyl)-6-azaspiro[2.5]octan-2-yl]methyl]furo[2,3-c]pyridine-2-carboxamide]	0.0432
CC(=O)Nc1cc(C(=O)N2CCC3(CC2)CC3CNC(=O)c2cc3ccncc3o2)ccn1 (stereo not shown) [Example 133, N-[[6-(2-acetamidopyridine-4-carbonyl)-6-azaspiro[2.5]octan-2-yl]methyl]furo[2,3-c]pyridine-2-carboxamide]	0.194
O=C(NCC1CC12CCN(C(=O)c1c[nH]nc1-n1cnnn1)CC2)c1cc2ccncc2o1 (stereo not shown) [Example 134, N-[[6-[3-(tetrazol-1-yl)-1H-pyrazole-4-carbonyl]-6-azaspiro[2.5]octan-2-yl]methyl]furo[2,3-c]pyridine-2-carboxamide]	0.0477
